# Experimental data: PubChem BioAssay AID1273 (Columbia University Molecular Screening Center, 2008)
# This is a selection; strong and weak results do not stand in their true shares. The source made the active and inactive calls.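 Rule for the calls: active = inhibition above the mean plus 3 SD, with well images judged a real hit on visual review (cut at about 60% in these data, passing the limit was not always enough); inconclusive = inhibition over the cutoff but images rejected on review; inactive = inhibition not above the cutoff.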
# Assay: inhibitors of insulin promoter-driven GFP, primary screen, imaging, TRM-6 cells (human fetal islet line), eGFP reporter, cell count (AID 1273)
# Conditions: at 2 µM, stronger effect = higher value, reporter expression induced with tamoxifen
row,Structure (SMILES),inhibition
1,CCOc1ncccc1C(=O)NCC1(N2CCOCC2)CCCCC1,inactive: -63.6%
2,CC(C)(C)OC(=O)N1CCC(Nc2ccccc2)CC1,inactive: -6.67%
3,CCC(CO)(C(=O)OC1CN2CCC1CC2)c1ccccc1 (centres undefined),inactive: 30%
4,CCN1CCC(Nc2cccc(F)c2)CC1,inactive: 31.2%
5,CN(C)c1ccc(C(=O)NCC2(N3CCCCC3)CCCCC2)cc1,inactive: -340%
6,N#Cc1ccc(C(=O)NCC2(N3CCCCC3)CCCCC2)cc1,inactive: -25%
7,c1ccc(CN2CCC(Nc3ccccc3)CC2)cc1,inactive: 42.9%
8,COc1ccc(C(=O)NCC2(N3CCOCC3)CCCCC2)cc1OC,inactive: 12.5%
9,N/C(=N\O)c1c(N)no[n+]1[O-],inactive: 45.5%
10,O=C(OC1CN2CCC1CC2)C1c2ccccc2C=Cc2ccccc21 (centres undefined),inactive: -30.8%
11,COc1ccc(CN(CCCl)CCCl)cc1Cl,inactive: 18.8%
12,CC(C)c1ccc(NC2CCN(C(=O)OC(C)(C)C)CC2)cc1,inactive: 22.2%
13,CN1CCC(Nc2cccc(F)c2)CC1,inactive: -36.7%
14,CN1CCN(CCOC(=O)C(O)(c2ccccc2)c2ccccc2)CC1,inactive: 7.89%
15,COc1ccc(NC2CCN(C(=O)OC(C)(C)C)CC2)cc1,inactive: -28.6%
16,O=C(NCC1(N2CCOCC2)CCCCC1)c1cc(=O)[nH]c2ccccc12,inactive: 8.7%
17,COc1ccc(C(=O)NCC2(N3CCCCC3)CCCCC2)c(OC)c1OC,inactive: 0%
18,O=C(NCC1(N2CCOCC2)CCCCC1)c1cc2ccccc2o1,inactive: 46.4%
19,O=C(OC1CN2CCC1CC2)C1c2ccccc2Oc2ccccc21 (centres undefined),inactive: 42.9%
